The results in this text go back to ChEMBL document CHEMBL1122439, “Conformational requirements for histamine H2-receptor inhibitors: a structure-activity study of phenylene analogues related to cimetidine and tiotidine” (J Med Chem, 1983).

The chains behind the UniProt entries cited, without tags or fusion partners.
UniProt P47747, whole entry: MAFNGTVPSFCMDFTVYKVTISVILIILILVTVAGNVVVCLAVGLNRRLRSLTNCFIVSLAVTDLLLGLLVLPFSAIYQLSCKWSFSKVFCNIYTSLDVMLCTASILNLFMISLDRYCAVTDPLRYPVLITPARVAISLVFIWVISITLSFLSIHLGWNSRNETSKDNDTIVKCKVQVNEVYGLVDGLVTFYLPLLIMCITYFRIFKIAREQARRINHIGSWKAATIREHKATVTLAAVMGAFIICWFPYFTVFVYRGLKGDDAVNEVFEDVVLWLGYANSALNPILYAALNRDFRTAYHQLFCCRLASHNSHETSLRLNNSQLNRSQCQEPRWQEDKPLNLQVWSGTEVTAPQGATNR

As usually defined, the Ki is the equilibrium dissociation constant of an inhibitor or competing ligand from its target.

The target in this assay is Histamine H2 receptor (Cavia porcellus, UniProt P47747). In words: Evaluated in vitro for Histamine H2 receptor inhibition using the dimaprit stimulated chronotropic response of the guinea pig atrium. In kind it is tissue-based, Cardiac atrium. An outline of the steps: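 Isolated guinea pig atria; chronotropic response to rising concentrations of H2 agonist dimaprit (10⁻⁷–10⁻⁴ M) in presence of test agent; three to four atria per test concentration; -log K_I = log(ED50 dose ratio − 1) − log(drug dose).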

As to `CNC(=NCCSCc1csc(N=C(N)N)n1)NC#N` [TIOTIDINE], the inhibition constant Ki is 0.0316 µM.
